In publication PMC5397608 (Journal of Molecular Biology, 2017):
Positions count from the first letter of the chain named. Blank lines part the entries; values can stand above or below the binder they belong to.

Amino acid sequences for entries named in this document (tags omitted). Chains listed by the source or under a name are the forms on record and can include a tag or linker.
UniProt P15692, other isoform, or with tags, fused parts or gaps: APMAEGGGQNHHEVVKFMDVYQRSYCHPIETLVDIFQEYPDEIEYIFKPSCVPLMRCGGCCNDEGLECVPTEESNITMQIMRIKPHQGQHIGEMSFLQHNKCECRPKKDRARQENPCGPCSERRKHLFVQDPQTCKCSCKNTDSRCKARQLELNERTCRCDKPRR

Biological target: T1, recombinant human Vascular Endothelial Growth Factor a (Homo sapiens, UniProt P15692-4, fluorescently labeled with Alexa-647)
T1 construct: human VEGFa, UniProt ID P15692, aa 27-191 as printed; the isoform is my reading of the limits 27-191; also called rhVEGFa; recombinant human VEGFa; source: recombinant
Experiment: MST; Alexa-647-labelled rhVEGFa constant at 1 nM in solution, mAb2 WT or variants in varying concentrations; 295 K; 25 mM sodium citrate pH 6.0, 125 mM NaCl, 0.05% Tween 20; triplicates; NanoTemper Monolith NT.115
Settings: both partners purified

Kd: 3.7 ± 1.1 nM
B1: mAb2_WT (antibody, V domains shown)
VH: EVQLVESGGGLVQPGGSLRLSCAASGFTISDYWIHWVRQAPGKGLEWVAGITPAGGYTYYADSVKGRFTISADTSKNTAYLQMNSLRAEDTAVYYCARFVFFLPYAMDYWGQGTLVTVSS
VL: DIQMTQSPSSLSASVGDRVTITCRASQDVSTAVAWYQQKPGKAPKLLIYSASFLYSGVPSRFSGSGSGTDFTLTISSLQPEDFATYYCQQSYTTPPTFGQGTKVEIK
notes: heavy chain variable region of mAb2; PDB 2FJF is the crystal structure of the antibody itself; constant regions of an IgG1 isotype, already in the expression vector; light chain variable region of mAb2; light chain constant region from the expression vector; IgG1; for the comparison with the mutants the wild type was made alongside them in CHO K1; also called wild-type mAb2; antibody 2; source: …

Kd: 3.2 ± 1.8 nM
B2: mAb2_SL52R (antibody, V domains shown)
VH: B1 VH
VL: B1 VL with S52R
notes: as the heavy chain variable region of m1 (PDB 2FJF); constant regions of an IgG1 isotype, already in the expression vector; as the light chain variable region of m1 (PDB 2FJF), with the stated change; light chain constant region from the expression vector; IgG1; source: CHO K1, transiently transfected, purified (protein A)
